# Laboratory results from PubChem BioAssay AID2275 (Broad Institute, 2010).
# Only a part is listed here, and it is no random draw. Some structures show a salt or complex split into parts, the way the source records it. Activity calls are given as the source filed them. No stated cut-off is given here; in the data, active means viability loss activity score above about 50%; inconclusive means no clear call, values can overlap the other calls; inactive means below about 35%.
# Experiment: BJeLR cell viability loss, primary screen, luminescence, CellTiterGlo ATP (AID 2275);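 further: higher score means fewer live cells and less ATP luminescence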
# Conditions: BJeLR fibroblasts viability, 48 h, stronger effect = higher value, HRASV12, hTERT and SV40 LT/ST transformed, concentration not given here
row,SMILES,viability loss activity score
1,COc1cc2c(cc1NP(C)(=O)Oc1ccccc1)oc1ccccc12 (stereo not given),inactive: -0.0888%
2,CN(C(=O)Cc1ccc(Cl)c(Cl)c1)[C@H]1CCCC[C@@H]1N1CCCC1,inactive: 3.16%
3,CP(=O)(Nc1ccccn1)Oc1ccccc1 (stereo not given),inactive: 2.67%
4,CP(=O)(Nc1ccc(Cl)cc1)Oc1ccc(F)cc1 (stereo not given),inactive: 3.6%
5,C/C1=C2N=C(/C=C3N=C(/C(C)=C4\[N-][C@@](C)([C@@H]5N=C1[C@](C)(CCC(=O)NCC(C)OP(=O)(O)O[C@@H]1[C@H](O)[C@H](n6cnc7cc(C)c(C)cc76)O[C@H]1CO)[C@H]5CC(N)=O)[C@@](C)(CC(N)=O)[C@@H]4CCC(N)=O)[C@@](C)(CC(N)=O)[C@@H]\3CCC(N)=O)C(C)(C)[C@@H]/2CCC(N)=O.[C-]#N.[Co+3] (stereo not given in full),inactive: 2.15%
6,O=C(OC1CN2CCC1CC2)c1ccc(Cl)cc1 (stereo not given),inactive: -9.56%
7,Cc1cccc(OCC(=O)OC2CN3CCC2CC3)c1 (stereo not given),inactive: -2.22%
8,O=P1(Nc2ccccn2)COc2ccccc2OC1,inactive: -0.681%
9,Cc1ccc(C(=O)OC2CN3CCC2CC3)cc1 (stereo not given),inactive: 1.21%
10,Cc1cc(C)cc(OP(C)(=O)Nc2ccc(OC(C)C)cc2)c1 (stereo not given),inactive: -7.35%
